One series concerns ddy mice. As to the kind of experiment: Acute toxicity. The series is classed as in vivo.
Another series in a line: Acute toxicity. In kind it is in vivo, mice (ddy). The following applies: mouse, in vivo, ip; ddy mice, single i.p., 14 days, Behren Korber's method.

Turning to “7-N-[2-[[2-[[(1S)-5-amino-1-carboxypentyl]carbamoyl]ethyl]dithio]ethyl]mitomycin C [Compound 23]”, in the series on ddy mice (ddy mice, single i.p., 14 days, Behren Korber's method), the LD50 ip was 37.5 mg/kg. In the series with ddy mice (relative to mitomycin C, ip), the “(C.I.)* = (LD50/ED50)/[(LD50/ED50) of MMC1]” value was found to be 2.14.
Turning to `CO[C@@]12[C@H](COC(N)=O)C3=C(C(=O)C(C)=C(NCCSSCCNC(=O)[C@@H](N)CCC(=O)O)C3=O)N1C[C@@H]1N[C@@H]12` [Compound 9, 7-N-[2-[[2-(N^2 -L-glutamino)ethyl]dithio]ethyl]mitomycin C], the median lethal dose (LD50) at 336 h in the series “Acute toxicity” came out at 37.5 mg/kg.
As to `CO[C@@]12[C@H](COC(N)=O)C3=C(C(=O)C(C)=C(NCCSSCCC(=O)N[C@@H](CCCN)C(=O)O)C3=O)N1C[C@@H]1N[C@@H]12` [Compound 22, 7-N-[2-[[2-[[(1S)-4-amino-1-carboxybutyl]carbamoyl]ethyl]dithio]ethyl]mitomycin C], in the series “Acute toxicity”, the LD50 at 336 h was 37.5 mg/kg.
`CCOC(=O)CNC(=O)C(C)SSCCNC1=C(C)C(=O)C2=C(C1=O)[C@@H](COC(N)=O)[C@@]1(OC)[C@H]3N[C@H]3CN21` (stereo partly shown) [Compound 30, 7-N-[2-[[1-[[(ethoxycarbonyl)methyl]carbamoyl]ethyl]dithio]ethyl]mitomycin C] yielded an LD50 at 336 h in “Acute toxicity” of 37.5 mg/kg.
Regarding `CO[C@@]12[C@H](COC(N)=O)C3=C(C(=O)C(C)=C(NCCSSCCS(=O)(=O)O)C3=O)N1C[C@@H]1N[C@@H]12` [Compound 36, 7-N-[2-[(2-sulfoethyl)dithio]ethyl]mitomycin C], the LD50 at 336 h in “Acute toxicity” amounted to 37.5 mg/kg.
Turning to `CO[C@@]12[C@H](COC(N)=O)C3=C(C(=O)C(C)=C(NCCSSCc4c[nH]c(=O)[nH]c4=O)C3=O)N1C[C@@H]1N[C@@H]12` [Compound 37, 7-N-[2-[[(2,4-dioxopyrimidin-5-yl)methyl]dithio]ethyl]mitomycin C], the LD50 at 336 h in “Acute toxicity” was determined as 37.5 mg/kg.

The values above are taken from patent US5103018A, “Mitomycin derivatives” (Kyowa Hakko Kogyo Kabushiki Kaisha, priority 1986, dated 1992).
